From PubChem BioAssay AID602428 (Sanford-Burnham Center for Chemical Genomics, 2012) come the findings set out here.

The structures appear in SMILES notation. The list shows a part of the results, in another mix than the full data. The source made the active and inactive calls.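 How the source made its calls: active means mean inhibition at 5 µM reaching about 45% (limit read from the data); inactive means the rest.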

This test is described as follows: blockers of Gli reporter signaling – single concentration, luciferase luminescence, Sufu-KO-LIGHT cells, confirmation (AID 602428).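 Further: plate controls were DMSO-treated cells for no effect and wells lacking cells for full effect.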 Conditions: at 5 µM, active compounds read high.
With `CN1CCCC(OC(=O)C(c2ccccc2)c2ccccc2)C1` (stereo not drawn), the inhibition is inactive: 16%. With `N#C/C(=C\c1ccc(N(CCBr)CCBr)cc1)C(N)=O` the figure was active: 74.1%; with `CC(=O)NC(SC(=S)N(C)C)C(Cl)(Cl)Cl` (stereo not drawn), active: 77.7%.
